The values below come from paper PMC3437750 (Journal of medicinal chemistry, 2011).

The target of the experiment is T1, purified human PMI (Homo sapiens, UniProt P34949).
T1 sequence (P34949 1-423): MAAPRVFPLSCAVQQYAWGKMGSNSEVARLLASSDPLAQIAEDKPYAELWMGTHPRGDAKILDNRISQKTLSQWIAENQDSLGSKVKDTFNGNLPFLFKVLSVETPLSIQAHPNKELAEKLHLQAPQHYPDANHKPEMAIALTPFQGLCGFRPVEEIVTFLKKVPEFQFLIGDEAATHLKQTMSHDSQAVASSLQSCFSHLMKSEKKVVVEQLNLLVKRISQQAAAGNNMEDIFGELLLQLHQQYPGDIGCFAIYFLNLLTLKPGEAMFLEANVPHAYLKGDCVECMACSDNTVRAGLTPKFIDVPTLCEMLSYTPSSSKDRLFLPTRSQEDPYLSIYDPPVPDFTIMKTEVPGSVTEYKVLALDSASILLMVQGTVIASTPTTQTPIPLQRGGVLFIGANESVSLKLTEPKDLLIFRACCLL
Type of experiment: biochemical. Particulars: PMM2 versus PMI inhibition.

`Cc1ccc(C)c(-n2sc3cc(F)ccc3c2=O)c1` [Compound 17, 2-(2,5-Dimethylphenyl)-6-fluorobenzo[d]isothiazol-3(2H)-one]: the “fold selectivity for PMI (over PMM2)” value was 7–9 fold.
